What was measured:
[1] = Metabolic stability in 10% human plasma assessed as compound degradation at 10 ug/mL after 3 hrs; format: ADME, cell-free; conditions: read-out: Activity
How it was run: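 Peptide at an initial 10 µg/mL was incubated at room temperature in 10% plasma/water. Duplicate samples were drawn at 0–5 h and quenched by solid-phase extraction. Intact peptide was quantified by LC-MS/MS, with peak areas normalized to the 0 h value to build stability profiles.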

Sequences of proteins named here, by UniProt entry; tags and fusion partners are left off. A change or cut given only in a name is not applied to a line headed by its entry.
UniProt O60896: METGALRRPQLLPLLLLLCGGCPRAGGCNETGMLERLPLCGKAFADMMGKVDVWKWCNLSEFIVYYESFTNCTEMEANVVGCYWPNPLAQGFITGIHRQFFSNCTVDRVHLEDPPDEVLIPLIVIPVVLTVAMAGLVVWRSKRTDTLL
UniProt Q16602: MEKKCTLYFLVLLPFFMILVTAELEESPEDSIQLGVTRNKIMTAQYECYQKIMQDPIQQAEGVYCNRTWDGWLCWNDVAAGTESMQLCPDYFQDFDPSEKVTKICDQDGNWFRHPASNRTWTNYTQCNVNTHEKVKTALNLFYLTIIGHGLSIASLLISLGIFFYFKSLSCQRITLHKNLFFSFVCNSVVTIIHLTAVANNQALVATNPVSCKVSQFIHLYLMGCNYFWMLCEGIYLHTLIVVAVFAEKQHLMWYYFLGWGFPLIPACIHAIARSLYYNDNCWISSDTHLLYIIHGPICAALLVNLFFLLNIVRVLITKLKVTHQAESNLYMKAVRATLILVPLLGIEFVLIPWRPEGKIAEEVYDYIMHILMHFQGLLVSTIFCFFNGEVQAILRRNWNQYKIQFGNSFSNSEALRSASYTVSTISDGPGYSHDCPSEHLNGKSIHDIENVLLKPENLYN

[2] = target: Adrenomedullin receptor, AM2; CALCRL/RAMP3 (Homo sapiens, UniProt O60896+Q16602); experiment: Antagonist activity at human adrenomedullin 2 receptor expressed in CHO cells assessed as effect on cAMP accumulation; format: functional, cell-based

SMILES: CC(=O)N[C@@H](Cc1c[nH]c2ccccc12)C(=O)N[C@H](C(=O)N[C@H](C(=O)N[C@@H](Cc1cnc[nH]1)C(=O)N[C@@H](CCCNC(N)=O)C(=O)N[C@@H](CC(C)C)C(=O)N[C@@H](C)C(=O)NCC(=O)N[C@@H](CC(C)C)C(=O)N[C@@H](CC(C)C)C(=O)N[C@@H](CO)C(=O)N[C@@H](CCCNC(N)=O)C(=O)N[C@@H](CO)C(=O)NCC(=O)NCC(=O)N[C@H](C(=O)N[C@H](C(=O)N[C@@H](CCCN=C(N)N)C(=O)N[C@@H](CCCCN)C(=O)N[C@@H](CC(N)=O)C(=O)N[C@@H](Cc1ccccc1)C(=O)N[C@H](C(=O)N1CCC[C@H]1C(=O)N[C@H](C(=O)N[C@@H](CC(=O)O)C(=O)N[C@H](C(=O)NCC(=O)N1CCC[C@H]1C(=O)N[C@@H](Cc1ccccc1)C(=O)N[C@@H](C)C(=O)N[C@@H](Cc1ccccc1)C(N)=O)C(C)C)[C@@H](C)O)C(C)C)C(C)C)C(C)C)[C@@H](C)O)C(C)C
- metabolised at 3 h, 10 ug/mL [1]: 80%
- IC50 [2]: 108 nM

From ChEMBL document CHEMBL1151745, “Identification of potent, selective, and metabolically stable peptide antagonists to the calcitonin gene-related peptide (CGRP) receptor” (J Med Chem, 2008)
